The values below are quoted from earlier work in patent US5321030A, “Creatine analogs having antiviral activity” (priority 1991, dated 1994).

Chains of the proteins cited; added tags and fusions are not shown. Lines headed by an entry give the natural chain unless they say otherwise; changes in a name come on top.
UniProt P00563: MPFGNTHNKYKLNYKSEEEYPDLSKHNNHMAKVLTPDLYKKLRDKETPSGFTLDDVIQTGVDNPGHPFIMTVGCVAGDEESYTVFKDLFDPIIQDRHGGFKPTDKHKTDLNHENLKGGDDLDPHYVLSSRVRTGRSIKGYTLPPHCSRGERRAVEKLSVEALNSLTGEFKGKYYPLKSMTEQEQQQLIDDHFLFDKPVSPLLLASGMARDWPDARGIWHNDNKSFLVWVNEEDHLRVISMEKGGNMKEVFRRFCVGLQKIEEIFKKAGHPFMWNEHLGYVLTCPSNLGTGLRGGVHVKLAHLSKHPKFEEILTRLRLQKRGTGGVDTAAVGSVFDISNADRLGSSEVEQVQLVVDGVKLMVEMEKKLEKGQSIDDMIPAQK

The target of the data set is creatine kinase (Oryctolagus cuniculus, UniProt P00563). As to conditions: pH 7 (37° C.), reverse reaction; cited from earlier work.

Turning to `N=C1N(CC(=O)O)CCN1P(=O)(O)O`, the “Vmax/Km ratio, fold lower than for P-creatine” value is recorded as “approximately 160 fold”.
